Values of other authors as cited in PubChem BioAssay AID1811 (Shanghai Institute of Organic Chemistry, 2009).
Some of the results follow. Calls of active or inactive are those of the source. Unless stated, no cut-off for active and inactive is given here.

Test system: sialic acid binding protein hi0146
Test: PubChem AID 1811
Conditions: PDB complex binding affinities from literature

Q: With `CC(=O)N[C@H]1[C@H]([C@H](O)[C@H](O)CO)OC(C(=O)O)=C[C@@H]1O` as the compound, how does the outcome read?
A: active
